The entries are a selection whose mix differs from that of the whole data set. Active and inactive are the calls of the source. Calls follow the shape of the dose curve; as a rule, active = well fitted inhibition curve with a large enough effect; inconclusive = small, poorly fitted or top-dose-only effect; inactive = no such curve, though single readings can be large or run the other way.
% is scaled to controls: 0 for no effect and ±100 for the full control effect.

Sequences of proteins named here, by UniProt entry; tags and fusion partners are left off.
UniProt O89049, whole entry: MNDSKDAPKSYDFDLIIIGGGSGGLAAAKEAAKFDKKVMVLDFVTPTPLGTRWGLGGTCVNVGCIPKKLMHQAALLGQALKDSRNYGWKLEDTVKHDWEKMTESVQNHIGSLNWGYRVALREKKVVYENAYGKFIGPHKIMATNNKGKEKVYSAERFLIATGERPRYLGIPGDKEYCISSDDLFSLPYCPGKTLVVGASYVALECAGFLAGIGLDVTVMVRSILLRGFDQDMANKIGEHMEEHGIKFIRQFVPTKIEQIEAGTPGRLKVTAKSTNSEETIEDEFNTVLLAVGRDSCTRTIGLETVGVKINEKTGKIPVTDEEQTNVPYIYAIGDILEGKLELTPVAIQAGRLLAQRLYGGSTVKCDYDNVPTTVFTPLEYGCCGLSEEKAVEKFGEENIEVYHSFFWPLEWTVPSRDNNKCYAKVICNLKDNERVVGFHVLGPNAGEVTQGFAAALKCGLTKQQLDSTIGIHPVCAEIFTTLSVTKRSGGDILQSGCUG

This assay concerns the target Thioredoxin reductase 1, cytoplasmic (Rattus norvegicus) (UniProt O89049). The experiment in a line: qHTS Assay for Substrates of Mammalian Selenoprotein Thioredoxin Reductase 1 (TrxR1): qHTS. Also: nearly all actives have a fitted effect of over 50% in size. The conditions noted are these: purified TrxR1 substrate turnover, NADPH consumption readout; at 114 µM (top of the series) unless noted. (In general: Quantitative high-throughput screening tests each substance at several concentrations.)
`CC1=NCCc2c1[nH]c1ccccc21.O=[N+]([O-])c1cc([N+](=O)[O-])c(O)c([N+](=O)[O-])c1`: the activity change, negative = substrate turnover was inactive: 0.862%.

Consider `Cc1ccc(C)c(NP(C)(=O)Oc2ccccc2)c1` (configuration not stated), for which the activity change, negative = substrate turnover is inactive: -9.04%. Regarding `CP(=O)(Nc1cccc(Br)c1)Oc1ccccc1` (configuration not stated), the activity change, negative = substrate turnover is inactive: -5.8%. As to `Cc1cc(C)cc(OP(C)(=O)Nc2ccccn2)c1` (configuration not stated), the activity change, negative = substrate turnover was inactive: 9.58%. The same measure for `COc1ccccc1OP(C)(=O)Nc1cccc(Br)c1` (configuration not stated): inactive: 1.52%. For `CCOC(=O)c1ccc(NP(C)(=O)Oc2cc(C)cc(C)c2)cc1` (configuration not stated), the activity change, negative = substrate turnover was inactive: -8.8%. Turning to `Cc1cc(C)cc(OP(C)(=O)Nc2ccc(C)cc2C)c1` (configuration not stated), the activity change, negative = substrate turnover is inactive: 9.38% [at 57.1 µM]. The same measure for `O=[N+]([O-])c1cc([N+](=O)[O-])c(-c2cnn(-c3ccccc3)c2)c([N+](=O)[O-])c1`: inactive: 2.57% [at 57.1 µM]. For the compound `Cc1nc2ccc3ccccc3c2s1.O=[N+]([O-])c1cc([N+](=O)[O-])c(O)c([N+](=O)[O-])c1`, the activity change, negative = substrate turnover was inactive: -9.28% [at 57.1 µM]. In the case of `CN1CCCCC1COC(=O)C1(O)c2ccccc2CCc2ccccc21` (configuration not stated), the activity change, negative = substrate turnover was inactive: 1.39% [at 0.0914 µM]. Consider `COc1ccccc1OP(C)(=O)Nc1c(C)cccc1C` (configuration not stated), for which the activity change, negative = substrate turnover is inactive: -10.5%. The same measure for `CP(=O)(Nc1ccc(SC(F)(F)F)cc1)Oc1ccccc1` (configuration not stated): inactive: -1.11%; for `CCCOc1ccc(NP(C)(=O)Oc2ccc(Cl)cc2)cc1` (configuration not stated): inactive: -6.68%; for `O=[N+]([O-])c1cc([N+](=O)[O-])c(Nc2nnnn2CCO)c([N+](=O)[O-])c1`: inactive: -11.8% [at 57.1 µM]. For the compound `CC1=C2N=C(C=C3N=C(C(C)=C4[N-][C@@](C)([C@@H]5N=C1[C@](C)(CCC(=O)NC[C@@H](C)OP(=O)([O-])O[C@H]1[C@@H](O)[C@@H](n6cnc7cc(C)c(C)cc76)O[C@@H]1CO)[C@H]5CC(N)=O)[C@@](C)(CC(N)=O)[C@@H]4CCC(N)=O)[C@@](C)(CC(N)=O)[C@@H]3CCC(N)=O)C(C)(C)[C@@H]2CCC(N)=O.[C-]#N.[Co+3]`, the activity change, negative = substrate turnover is inactive: -9.72%.

On to `CP(=S)(Nn1cnnc1)Oc1ccccc1` (configuration not stated), for which the activity change, negative = substrate turnover is inactive: 2.55% [at 57.1 µM]. In the case of `CP(=O)(Nc1ccccc1Br)Oc1ccccc1` (configuration not stated), the activity change, negative = substrate turnover was inactive: 11.7% [at 57.1 µM].

As to `COc1ccccc1OP(C)(=O)Nc1ccccc1` (configuration not stated), the activity change, negative = substrate turnover is inactive: -4.75%. Regarding `O=[N+]([O-])c1cc([N+](=O)[O-])c(O)c([N+](=O)[O-])c1.c1ccc(Oc2ccncc2)cc1`, the activity change, negative = substrate turnover was inactive: -10.9% [at 57.1 µM]. Turning to `CCOC(=O)c1ccc(NP(C)(=O)Oc2ccc(OC)cc2)cc1` (configuration not stated), the activity change, negative = substrate turnover was inactive: -0.794%. `CCOP(C)(=S)SCC(=O)NC(C)C(=O)O` (configuration not stated): the activity change, negative = substrate turnover is inactive: 7.17%. For `CP(=O)(Nc1ccccn1)Oc1ccc(Cl)cc1` (configuration not stated) the value was inactive: 3.08%. In the case of `CP(=O)(Oc1ccccc1)OC(c1ccccc1)C(F)(F)F` (configuration not stated), the activity change, negative = substrate turnover is inactive: 2.54%. For `CP(=O)(Nc1ccc(SC(F)(F)F)cc1)Oc1ccc(Cl)cc1` (configuration not stated) the value was inactive: -16.8%; for `Cc1cccc(C)c1OP(C)(=O)Nc1ccc(SC(F)(F)F)cc1` (configuration not stated), inactive: -7.11% [at 57.1 µM].

Regarding `Cc1cc(C)cc(OP(C)(=O)Nc2ccc(SC(F)(F)F)cc2)c1` (configuration not stated), the activity change, negative = substrate turnover was inactive: -6.02% [at 57.1 µM]. Turning to `CCc1ccc(OP(C)(=O)N2CCN(c3ccc([N+](=O)[O-])cc3)CC2)cc1` (configuration not stated), the activity change, negative = substrate turnover is inactive: -13.3%. Consider `CP(=O)(NC(=O)Nc1ccccc1)Oc1ccccc1` (configuration not stated), for which the activity change, negative = substrate turnover was inactive: 12%.

For `CCN(CC)CCCOC(=O)C(O)(c1ccccc1)c1ccccc1`, the activity change, negative = substrate turnover was inactive: 1.74%.

As to `Cc1ccc(NP(C)(=O)Oc2ccccc2)c(C)c1` (configuration not stated), the activity change, negative = substrate turnover is inactive: 8.36% [at 57.1 µM]. As for `COc1ccccc1OP(C)(=O)Nc1ccc(C)cc1` (configuration not stated), the activity change, negative = substrate turnover was inactive: -0.793%. For the compound `CCOC(=O)c1ccc(NP(C)(=O)Oc2ccccc2)cc1` (configuration not stated), the activity change, negative = substrate turnover was inactive: -0.409%. In the case of `Cc1cc(C)cc(OP(C)(N)=O)c1` (configuration not stated), the activity change, negative = substrate turnover was inactive: 3.87% [at 57.1 µM]. Regarding `COc1ccc(OP(C)(=O)Nc2cccc(F)c2)cc1` (configuration not stated), the activity change, negative = substrate turnover is inactive: -8.34% [at 57.1 µM]. As to `COc1ccccc1OP(C)(=O)Nc1cc(Cl)ccc1C` (configuration not stated), the activity change, negative = substrate turnover is inactive: 9.93% [at 57.1 µM]. As to `O=[N+]([O-])c1cc([N+](=O)[O-])c(Nc2cccnc2)c([N+](=O)[O-])c1`, the activity change, negative = substrate turnover is inactive: -17.6%. For `O=[N+]([O-])c1ccc2c(c1)C=Nc1ccccc1O2` the value was inactive: -5.92%; for `Cc1cccc(C)c1OP(C)(N)=O` (configuration not stated), inactive: 1.77% [at 57.1 µM]; for `CP(=O)(OCCOc1ccccc1)OCCOc1ccccc1`, inactive: -2.57%. For `CCCCCCCCCCCCCCCC1C[N+](C)(C)CCOP(C)(=O)O1` (configuration not stated) the value was inactive: 6.51% [at 57.1 µM]; for `CP(=O)(Nc1ccc(Cl)cc1Cl)Oc1ccccc1` (configuration not stated), inactive: -2.33%; for `Cc1cc(C)cc(OP(C)(=O)Nc2cccc(C(F)(F)F)c2)c1` (configuration not stated), inactive: -13.9%.

For the origin of these results see PubChem BioAssay AID588456 (National Center for Advancing Translational Sciences (NCATS), 2011).
